Measured values reported in ChEMBL document CHEMBL1138708, “Synthesis of analogs of (1,4)-3- and 5-imino oxazepane, thiazepane, and diazepane as inhibitors of nitric oxide synthases” (Bioorg Med Chem Lett, 2004).

The chains behind the UniProt entries cited, without tags or fusion partners.
UniProt P35228, whole entry: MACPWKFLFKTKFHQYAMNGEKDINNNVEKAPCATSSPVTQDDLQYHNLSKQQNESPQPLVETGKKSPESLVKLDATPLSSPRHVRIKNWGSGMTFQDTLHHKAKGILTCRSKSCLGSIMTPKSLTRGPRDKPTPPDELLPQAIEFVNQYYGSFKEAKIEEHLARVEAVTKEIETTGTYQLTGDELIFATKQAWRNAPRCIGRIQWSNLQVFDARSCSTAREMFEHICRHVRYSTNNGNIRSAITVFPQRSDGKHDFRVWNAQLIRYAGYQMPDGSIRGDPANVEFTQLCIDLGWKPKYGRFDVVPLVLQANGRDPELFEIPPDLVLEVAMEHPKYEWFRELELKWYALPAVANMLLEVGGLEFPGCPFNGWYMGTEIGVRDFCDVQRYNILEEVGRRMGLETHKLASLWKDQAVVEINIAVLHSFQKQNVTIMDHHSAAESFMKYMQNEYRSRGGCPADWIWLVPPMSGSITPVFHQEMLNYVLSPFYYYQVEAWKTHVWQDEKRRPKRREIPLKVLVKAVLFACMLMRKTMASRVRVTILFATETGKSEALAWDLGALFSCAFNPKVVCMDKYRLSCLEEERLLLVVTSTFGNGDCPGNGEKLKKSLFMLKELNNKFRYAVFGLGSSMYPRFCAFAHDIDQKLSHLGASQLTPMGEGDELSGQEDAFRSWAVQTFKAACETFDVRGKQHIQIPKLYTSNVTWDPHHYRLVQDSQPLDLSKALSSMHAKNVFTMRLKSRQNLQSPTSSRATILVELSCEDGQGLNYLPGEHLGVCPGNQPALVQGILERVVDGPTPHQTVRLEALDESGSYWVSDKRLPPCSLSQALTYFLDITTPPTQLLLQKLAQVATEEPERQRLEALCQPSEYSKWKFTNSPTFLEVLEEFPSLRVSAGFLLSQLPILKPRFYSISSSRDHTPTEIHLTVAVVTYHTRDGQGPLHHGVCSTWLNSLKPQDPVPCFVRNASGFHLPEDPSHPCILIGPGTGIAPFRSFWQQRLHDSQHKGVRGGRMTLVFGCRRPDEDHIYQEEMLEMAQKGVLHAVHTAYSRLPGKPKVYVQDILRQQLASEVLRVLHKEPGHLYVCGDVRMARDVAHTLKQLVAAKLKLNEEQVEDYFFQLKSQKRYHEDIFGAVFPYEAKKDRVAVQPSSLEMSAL
UniProt P29475, whole entry: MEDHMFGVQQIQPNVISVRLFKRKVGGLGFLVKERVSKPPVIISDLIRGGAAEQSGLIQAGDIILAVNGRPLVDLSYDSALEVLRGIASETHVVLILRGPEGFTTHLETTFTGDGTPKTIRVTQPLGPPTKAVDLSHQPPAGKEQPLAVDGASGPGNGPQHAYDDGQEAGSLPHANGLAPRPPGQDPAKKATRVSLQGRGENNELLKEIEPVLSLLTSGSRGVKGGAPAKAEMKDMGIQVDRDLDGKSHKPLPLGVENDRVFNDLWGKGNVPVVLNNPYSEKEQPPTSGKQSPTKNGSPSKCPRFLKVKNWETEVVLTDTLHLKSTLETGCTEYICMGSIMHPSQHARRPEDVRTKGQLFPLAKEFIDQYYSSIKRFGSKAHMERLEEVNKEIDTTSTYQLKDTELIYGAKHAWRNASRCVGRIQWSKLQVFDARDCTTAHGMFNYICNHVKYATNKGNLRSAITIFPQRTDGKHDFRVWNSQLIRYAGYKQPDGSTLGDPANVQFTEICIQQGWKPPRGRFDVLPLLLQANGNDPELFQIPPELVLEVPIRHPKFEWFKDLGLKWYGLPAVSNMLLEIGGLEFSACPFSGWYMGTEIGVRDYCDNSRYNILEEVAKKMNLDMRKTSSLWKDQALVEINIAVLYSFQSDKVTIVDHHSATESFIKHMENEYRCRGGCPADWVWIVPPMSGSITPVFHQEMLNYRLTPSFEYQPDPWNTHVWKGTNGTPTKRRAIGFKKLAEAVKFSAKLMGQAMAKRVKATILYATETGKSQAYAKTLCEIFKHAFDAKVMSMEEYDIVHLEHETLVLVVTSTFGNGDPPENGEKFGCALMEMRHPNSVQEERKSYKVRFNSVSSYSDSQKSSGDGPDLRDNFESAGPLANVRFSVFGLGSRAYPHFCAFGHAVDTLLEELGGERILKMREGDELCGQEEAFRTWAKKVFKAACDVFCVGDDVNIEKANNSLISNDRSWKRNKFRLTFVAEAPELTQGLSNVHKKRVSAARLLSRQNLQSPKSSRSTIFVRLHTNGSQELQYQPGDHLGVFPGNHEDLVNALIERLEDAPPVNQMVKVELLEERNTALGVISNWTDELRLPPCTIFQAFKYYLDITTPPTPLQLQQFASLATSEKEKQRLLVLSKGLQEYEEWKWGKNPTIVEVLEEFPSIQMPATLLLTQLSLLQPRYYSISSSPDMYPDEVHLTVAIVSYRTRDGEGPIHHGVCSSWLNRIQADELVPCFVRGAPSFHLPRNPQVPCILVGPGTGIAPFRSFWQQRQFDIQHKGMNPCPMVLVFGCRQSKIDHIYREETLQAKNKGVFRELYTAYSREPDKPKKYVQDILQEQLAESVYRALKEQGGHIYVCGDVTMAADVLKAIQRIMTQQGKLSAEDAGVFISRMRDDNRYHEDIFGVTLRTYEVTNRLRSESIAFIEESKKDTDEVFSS

Tests used:
[1] = biological target: Nitric oxide synthase, inducible (Homo sapiens, UniProt P35228); assay: Inhibitory concentration against Inducible nitric oxide synthase
Nitric oxide synthase 1 = Nitric oxide synthase 1 (Homo sapiens, UniProt P29475); assay: Inhibitory concentration against Neuronal nitric oxide synthase

In the case of NC1=NCCCOC1, the IC50 [1] is reported as 0.16 µM and the IC50 (Nitric oxide synthase 1) is reported as 0.16 µM.
